According to patent US20210169980A1 (HONG KONG UNIVERSITY OF SCIENCE AND TECHNOLOGY, published 2021):

T1: LGG-2 (C. elegans, UniProt Q23536 1-130, limits assumed)
T1 construct: also called worm orthologue of LC3
T1 sequence (looked up): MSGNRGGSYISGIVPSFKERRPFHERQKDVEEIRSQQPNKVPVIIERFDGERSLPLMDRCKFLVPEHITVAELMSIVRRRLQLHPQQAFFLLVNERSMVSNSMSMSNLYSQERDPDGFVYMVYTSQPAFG


Key:
Test in all cases: ITC
[..]1 = [..]1 (human, UniProt Q9H0R8 1-117)
LGG-2 = molecular target: T1, LGG-2
LC3A = LC3A (human, UniProt Q9H492 1-121)

| Binder | Kd ([..]1) [nM] | fold weaker affinity against LGG-1 (LGG-2) [fold] | Kd (LC3A) [nM] |
| --- | --- | --- | --- |
| PEDDWTEFSSEEIREARQAAASHAPS [AnkG LIR (AnkG WT peptide, rat 480 kD AnkG residues 1985-2010)] | ~3.7 | ~130 | – |
| VEEEWVIVSDEEIEEARQKAPLEITEY [AnkB LIR (AnkB WT peptide, human 440 kD AnkB residues 1588-1614)] | – | – | 3.7 |
